Test results published in patent publication US8586613B2, “Pyridinium and quinolinium derivatives” (Universidad de Granada, priority 2004, dated 2013).

The chains behind the UniProt entries cited, without tags or fusion partners.
UniProt P35790, whole entry: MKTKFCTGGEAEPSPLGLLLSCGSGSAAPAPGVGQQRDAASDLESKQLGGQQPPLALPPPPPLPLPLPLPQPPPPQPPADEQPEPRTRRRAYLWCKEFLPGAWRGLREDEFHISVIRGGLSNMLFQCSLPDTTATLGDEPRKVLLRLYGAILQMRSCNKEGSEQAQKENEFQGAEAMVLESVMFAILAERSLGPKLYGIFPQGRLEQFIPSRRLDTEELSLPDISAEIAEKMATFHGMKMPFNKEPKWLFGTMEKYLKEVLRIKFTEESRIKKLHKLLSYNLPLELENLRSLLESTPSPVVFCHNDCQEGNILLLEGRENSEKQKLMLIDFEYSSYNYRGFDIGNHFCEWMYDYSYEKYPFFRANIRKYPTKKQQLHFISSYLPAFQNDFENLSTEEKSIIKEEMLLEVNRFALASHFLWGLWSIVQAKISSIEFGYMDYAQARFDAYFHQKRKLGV

Experiments:
Human ChoK = biological target: T1, Human ChoK (Homo sapiens, UniProt P35790); test: Ex vivo assay of the activity of human ChoK (recombinant choline kinase expressed in E. coli); assay type: biochemical; details: 37° C., 30 minutes
T1 construct: made in house; host or cells: E. coli
Protocol: Recombinant choline kinase expressed in E. coli in the buffer assay (100 mM Tris-HCl pH 8.0, 100 mM MgCl2, 10 mM ATP and 200 μM of choline in the presence of methyl[^14C]-choline chloride (50-60 μCi/mmol)) was used for the ex vivo assays. […] The samples were washed with diethyl ether saturated with water and were lyophilized. The hydrophilic choline derivatives were resolved in thin layer chromatography plates according to a described process [Ramírez, A., Penalva, V., Lucas, L., Lacal, J. C.

HT-29 cells = test: HT-29 cell proliferation assay (Crystal Violet); assay type: cell-based; details: Homo sapiens, 144 h, six days of treatment
Protocol: The HT-29 cells were seeded in 24-well plates (35×10^3 cells/well) and were incubated for 24 hours. Then the cells were treated with different concentrations of ChoK inhibitors in the usual culture medium. Three days later, the wells were aspirated and both fresh medium and more amount of drug were added, and the cells were maintained for three more days. The quantification of the remaining cells in each well was carried out by means of the Crystal Violet method [Gillies, R. J., Didier, N., Denton, M. Anal. Biochem. 159, 109-113 (1986)], with some modifications [Hernández-Alcoceba, R., Saniger, L., Campos, J., Núñez, M. C., Khaless, F., Gallo, M. Á., Espinosa, A., Lacal, J. C. Oncogene, 15, 2289-2301 (1997)]. Briefly, the cells were washed with TD buffer and fixed with 1% glutaraldehyde for 15 minutes. After washing again with TD, the cell nuclei were coloured with 0.1% Crystal Violet for at least 30 minutes and washed three times with distilled water. The adsorbed colouring was resuspended in 10% acetic acid and the absorbance at 595 nm was determined in a spectrometer. […] This value determined by iterative curve adjustment. Two values are determined for each point of the curve, the experiment was repeated two or three times and the mean values were estimated. In the few cases in which the two values differed more than 50%, a third experiment was carried out to determine the real value. […]

| Compound | IC50 (Human ChoK) [nM] | IC50 (HT-29 cells) [nM] |
| --- | --- | --- |
| CN(c1ccc(Cl)cc1)c1cc[n+](Cc2cccc(-c3cccc(C[n+]4ccc(N(C)c5ccc(Cl)cc5)c5ccccc54)c3)c2)c2ccccc12.[Br-].[Br-] [Compound 5, 1,1′-(biphenyl-3,3′-diylmethylene)bis[4-(4-chloro-N-methylanilino)quinolinium]dibromide] | 1300 | – |
| 1,1′-(biphenyl-3,3′-diylmethylene)bis[4-(3,5-dichloro-N-methylanilino)pyridinium]dibromide [Compound 4] | 2600 | – |
| c1cc(C[n+]2ccc(N3CCCC3)cc2)cc(-c2cccc(C[n+]3ccc(N4CCCC4)cc3)c2)c1 [EC1, reference compound] | – | 2600 |
